The values below are quoted from earlier work in patent US20030032580A1, “Use of agonists or antagonists of the 5-HT7 receptor to treat disorders of the bladder” (Synaptic Pharmaceutical Corporation, priority 1999, published 2003).

Protein sequences, listed by entry. Tags and fused reporters are not part of them. Residues count along the entry.
UniProt P28335, 33-458, species assumed: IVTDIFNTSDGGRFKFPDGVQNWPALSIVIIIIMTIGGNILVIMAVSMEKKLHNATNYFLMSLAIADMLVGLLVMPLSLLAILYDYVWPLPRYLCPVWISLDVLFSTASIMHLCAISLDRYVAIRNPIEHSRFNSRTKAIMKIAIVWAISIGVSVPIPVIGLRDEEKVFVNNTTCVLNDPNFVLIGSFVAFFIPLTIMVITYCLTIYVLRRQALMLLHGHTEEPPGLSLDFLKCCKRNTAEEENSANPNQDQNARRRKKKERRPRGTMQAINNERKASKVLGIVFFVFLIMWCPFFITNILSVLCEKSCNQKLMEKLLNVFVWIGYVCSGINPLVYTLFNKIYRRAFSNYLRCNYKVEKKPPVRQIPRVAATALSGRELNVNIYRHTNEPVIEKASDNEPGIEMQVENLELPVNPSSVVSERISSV

SMILES strings stand for the structures.

In the series the target is 5-HT2C (Homo sapiens, UniProt P28335). To be noted: Hoyer, 1989; Hoyer et al., 1994; cited from earlier work.

In the case of `COC(=O)[C@H]1[C@H]2C[C@H]3c4[nH]c5ccccc5c4CCN3C[C@H]2CC[C@@H]1O` [rauwolscine], the “pKB, 5-HT2C” value is reported as 5.8.
